biological target: TLN1 PTB (Homo sapiens, UniProt Q9Y490); assay type: binding; settings: not given

Sequences of proteins named here, by UniProt entry; tags and fusion partners are left off. Residues count along the entry.
UniProt Q9Y490, 309-401: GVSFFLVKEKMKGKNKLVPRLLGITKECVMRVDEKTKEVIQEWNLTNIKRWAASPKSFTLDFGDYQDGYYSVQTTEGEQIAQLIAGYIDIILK

Question: FPTDERSWVYSPLHYS D4A (FPTAERSWVYSPLHYS) was tested. Which “DMS-derived PSSM value of the single-substitution variant” value (shortened to “DMS-derived PSSM value”) did it give?
Answer: 0.0399

Question: How did the “DMS-derived PSSM value” value turn out when FPTDERSWVYSPLHYS D4D was run?
Answer: 0.04783

Question: With FPTDERSWVYSPLHYS D4E (FPTEERSWVYSPLHYS) as the substance, how does the “DMS-derived PSSM value” value read?
Answer: 0.01007

Question: FPTDERSWVYSPLHYS D4F (FPTFERSWVYSPLHYS) was tested. Which “DMS-derived PSSM value” value did it give?
Answer: 0.0552

Question: FPTDERSWVYSPLHYS D4G (FPTGERSWVYSPLHYS) was tested. Which “DMS-derived PSSM value” value did it give?
Answer: 0.263

Question: Which “DMS-derived PSSM value” value does the source give for FPTDERSWVYSPLHYS D4H (FPTHERSWVYSPLHYS) here?
Answer: 0.08834

Question: FPTDERSWVYSPLHYS D4I (FPTIERSWVYSPLHYS) was tested. Which “DMS-derived PSSM value” value did it give?
Answer: 0.02659

Question: FPTDERSWVYSPLHYS D4K (FPTKERSWVYSPLHYS) was tested. Which “DMS-derived PSSM value” value did it give?
Answer: 0

Question: FPTDERSWVYSPLHYS D4L (FPTLERSWVYSPLHYS) was tested. Which “DMS-derived PSSM value” value did it give?
Answer: 0.1193

Question: How did the “DMS-derived PSSM value” value turn out when FPTDERSWVYSPLHYS D4M (FPTMERSWVYSPLHYS) was run?
Answer: 0.01007

Question: Which “DMS-derived PSSM value” value does the source give for FPTDERSWVYSPLHYS D4N (FPTNERSWVYSPLHYS) here?
Answer: 0.0112

Question: Which “DMS-derived PSSM value” value does the source give for FPTDERSWVYSPLHYS D4P (FPTPERSWVYSPLHYS) here?
Answer: 0.02886

Question: Which “DMS-derived PSSM value” value does the source give for FPTDERSWVYSPLHYS D4Q (FPTQERSWVYSPLHYS) here?
Answer: 0.04439

Question: With FPTDERSWVYSPLHYS D4R (FPTRERSWVYSPLHYS) as the substance, how does the “DMS-derived PSSM value” value read?
Answer: 0.05711

Question: With FPTDERSWVYSPLHYS D4S (FPTSERSWVYSPLHYS) as the substance, how does the “DMS-derived PSSM value” value read?
Answer: 0.09689

Question: Which “DMS-derived PSSM value” value does the source give for FPTDERSWVYSPLHYS D4T (FPTTERSWVYSPLHYS) here?
Answer: 0.04433

Question: FPTDERSWVYSPLHYS D4V (FPTVERSWVYSPLHYS) was tested. Which “DMS-derived PSSM value” value did it give?
Answer: 0.0189

Question: Which “DMS-derived PSSM value” value does the source give for FPTDERSWVYSPLHYS D4W (FPTWERSWVYSPLHYS) here?
Answer: 0.03033

Question: How did the “DMS-derived PSSM value” value turn out when FPTDERSWVYSPLHYS D4Y (FPTYERSWVYSPLHYS) was run?
Answer: 0.007692

Question: FPTDERSWVYSPLHYS E5A (FPTDARSWVYSPLHYS) was tested. Which “DMS-derived PSSM value” value did it give?
Answer: 0.02052

Question: How did the “DMS-derived PSSM value” value turn out when FPTDERSWVYSPLHYS E5D (FPTDDRSWVYSPLHYS) was run?
Answer: 0.00185

Question: With FPTDERSWVYSPLHYS E5E as the substance, how does the “DMS-derived PSSM value” value read?
Answer: 0.01423

Question: How did the “DMS-derived PSSM value” value turn out when FPTDERSWVYSPLHYS E5F (FPTDFRSWVYSPLHYS) was run?
Answer: 0.04033

Question: Which “DMS-derived PSSM value” value does the source give for FPTDERSWVYSPLHYS E5G (FPTDGRSWVYSPLHYS) here?
Answer: 0.02315

Question: FPTDERSWVYSPLHYS E5H (FPTDHRSWVYSPLHYS) was tested. Which “DMS-derived PSSM value” value did it give?
Answer: 0.05296

Question: FPTDERSWVYSPLHYS E5I (FPTDIRSWVYSPLHYS) was tested. Which “DMS-derived PSSM value” value did it give?
Answer: 0.07824

Question: Which “DMS-derived PSSM value” value does the source give for FPTDERSWVYSPLHYS E5K (FPTDKRSWVYSPLHYS) here?
Answer: 0.01114

Question: With FPTDERSWVYSPLHYS E5L (FPTDLRSWVYSPLHYS) as the substance, how does the “DMS-derived PSSM value” value read?
Answer: 0.2094

Question: How did the “DMS-derived PSSM value” value turn out when FPTDERSWVYSPLHYS E5M (FPTDMRSWVYSPLHYS) was run?
Answer: 0.02876

Question: FPTDERSWVYSPLHYS E5N (FPTDNRSWVYSPLHYS) was tested. Which “DMS-derived PSSM value” value did it give?
Answer: 0.1109

Question: FPTDERSWVYSPLHYS E5P (FPTDPRSWVYSPLHYS) was tested. Which “DMS-derived PSSM value” value did it give?
Answer: 0.1802

Question: How did the “DMS-derived PSSM value” value turn out when FPTDERSWVYSPLHYS E5Q (FPTDQRSWVYSPLHYS) was run?
Answer: 0.006665

Question: How did the “DMS-derived PSSM value” value turn out when FPTDERSWVYSPLHYS E5R (FPTDRRSWVYSPLHYS) was run?
Answer: 0.001144

Question: With FPTDERSWVYSPLHYS E5S (FPTDSRSWVYSPLHYS) as the substance, how does the “DMS-derived PSSM value” value read?
Answer: 0.02969

Question: With FPTDERSWVYSPLHYS E5T (FPTDTRSWVYSPLHYS) as the substance, how does the “DMS-derived PSSM value” value read?
Answer: 0.04923

Question: For FPTDERSWVYSPLHYS E5V (FPTDVRSWVYSPLHYS), which “DMS-derived PSSM value” value is on record?
Answer: 0.02298

Question: FPTDERSWVYSPLHYS E5W (FPTDWRSWVYSPLHYS) was tested. Which “DMS-derived PSSM value” value did it give?
Answer: 0.09877

Question: Which “DMS-derived PSSM value” value does the source give for FPTDERSWVYSPLHYS E5Y (FPTDYRSWVYSPLHYS) here?
Answer: 0.01982

Question: How did the “DMS-derived PSSM value” value turn out when “FPTDERSWVYSPLHYS H14A (FPTDERSWVYSPLAYS)” was run?
Answer: 0.04045

Question: How did the “DMS-derived PSSM value” value turn out when “FPTDERSWVYSPLHYS H14D (FPTDERSWVYSPLDYS)” was run?
Answer: 0.07099

Question: “FPTDERSWVYSPLHYS H14E (FPTDERSWVYSPLEYS)” was tested. Which “DMS-derived PSSM value” value did it give?
Answer: 0.07798

Question: Which “DMS-derived PSSM value” value does the source give for “FPTDERSWVYSPLHYS H14F (FPTDERSWVYSPLFYS)” here?
Answer: 0.004934

Question: With “FPTDERSWVYSPLHYS H14G (FPTDERSWVYSPLGYS)” as the substance, how does the “DMS-derived PSSM value” value read?
Answer: 0.03957

Question: For FPTDERSWVYSPLHYS H14H, which “DMS-derived PSSM value” value is on record?
Answer: 0.02344

Question: How did the “DMS-derived PSSM value” value turn out when “FPTDERSWVYSPLHYS H14I (FPTDERSWVYSPLIYS)” was run?
Answer: 0.007983

Question: With “FPTDERSWVYSPLHYS H14K (FPTDERSWVYSPLKYS)” as the substance, how does the “DMS-derived PSSM value” value read?
Answer: 0.02888

Question: “FPTDERSWVYSPLHYS H14L (FPTDERSWVYSPLLYS)” was tested. Which “DMS-derived PSSM value” value did it give?
Answer: 0.01725

Question: With “FPTDERSWVYSPLHYS H14M (FPTDERSWVYSPLMYS)” as the substance, how does the “DMS-derived PSSM value” value read?
Answer: 0.215

Question: Which “DMS-derived PSSM value” value does the source give for “FPTDERSWVYSPLHYS H14N (FPTDERSWVYSPLNYS)” here?
Answer: 0.005491

Question: “FPTDERSWVYSPLHYS H14P (FPTDERSWVYSPLPYS)” was tested. Which “DMS-derived PSSM value” value did it give?
Answer: 0.0415

Question: “FPTDERSWVYSPLHYS H14Q (FPTDERSWVYSPLQYS)” was tested. Which “DMS-derived PSSM value” value did it give?
Answer: 0.0224

Question: For “FPTDERSWVYSPLHYS H14R (FPTDERSWVYSPLRYS)”, which “DMS-derived PSSM value” value is on record?
Answer: 0.02865

Question: “FPTDERSWVYSPLHYS H14S (FPTDERSWVYSPLSYS)” was tested. Which “DMS-derived PSSM value” value did it give?
Answer: 0.06988

Question: “FPTDERSWVYSPLHYS H14T (FPTDERSWVYSPLTYS)” was tested. Which “DMS-derived PSSM value” value did it give?
Answer: 0.2136

Question: With “FPTDERSWVYSPLHYS H14V (FPTDERSWVYSPLVYS)” as the substance, how does the “DMS-derived PSSM value” value read?
Answer: 0.06265

Question: With “FPTDERSWVYSPLHYS H14W (FPTDERSWVYSPLWYS)” as the substance, how does the “DMS-derived PSSM value” value read?
Answer: 0.009247

Question: “FPTDERSWVYSPLHYS H14Y (FPTDERSWVYSPLYYS)” was tested. Which “DMS-derived PSSM value” value did it give?
Answer: 0.02017

Question: “FPTDERSWVYSPLHYS L13A (FPTDERSWVYSPAHYS)” was tested. Which “DMS-derived PSSM value” value did it give?
Answer: 0.02593

Question: Which “DMS-derived PSSM value” value does the source give for “FPTDERSWVYSPLHYS L13D (FPTDERSWVYSPDHYS)” here?
Answer: 0

Question: Which “DMS-derived PSSM value” value does the source give for “FPTDERSWVYSPLHYS L13E (FPTDERSWVYSPEHYS)” here?
Answer: 0

Question: Which “DMS-derived PSSM value” value does the source give for “FPTDERSWVYSPLHYS L13F (FPTDERSWVYSPFHYS)” here?
Answer: 0.05572

same assay, conditions: DMS-BM phage selection against TLN1 PTB, log2 of summed NGS counts

Question: For Ac-LADLIFTDNKLYIPLE-NH2 [TPTE2_S100N], which “NGS_counts log2_total” value is on record?
Answer: 8.22

Question: Which “NGS_counts log2_total” value does the source give for Ac-LADLIFTDSALYIPLE-NH2 [TPTE2_K101A] here?
Answer: 7.83

Question: With Ac-LADLIFTDSKLWIPLE-NH2 [TPTE2_Y103W] as the substance, how does the “NGS_counts log2_total” value read?
Answer: 5.13

Question: Ac-LADLIFTDSKLYAPLE-NH2 [TPTE2_I104A] was tested. Which “NGS_counts log2_total” value did it give?
Answer: 2.58

Question: Ac-LADLIFTDSKLYIPLE-NH2 [TPTE2 wt] was tested. Which “NGS_counts log2_total” value did it give?
Answer: 8.69

Question: Which “NGS_counts log2_total” value does the source give for Ac-LADLIFTDSKLYLPLE-NH2 [TPTE2_I104L] here?
Answer: 9.14

Question: With Ac-LADLIWTDSKLYIPLE-NH2 [TPTE2_F97W] as the substance, how does the “NGS_counts log2_total” value read?
Answer: 7.16

Question: For Ac-LADLIYTDSKLYIPLE-NH2 [TPTE2_F97Y], which “NGS_counts log2_total” value is on record?
Answer: 3.91

Source: article PMC12102759 (Protein Science : A Publication of the Protein Society, 2025)
